Earlier results on one compound are cited in US11407812B2, “Targeted expression of chloride channels and methods of use thereof” (GOLEINI INC., priority 2015, dated 2022).

This data set concerns the target GlyR (UniProt P07727). The following applies: read-out: EC50 reported by Sontheimer H. et al. (1989); similar assay, α-subunit only; cited from earlier work.

In the case of `NCC(=O)O` [Glycine], the EC50 was 100 µM.
